{
  "source": "patent US7125671B2",
  "about": "“Nucleic acid amplification with terminal-phosphate labeled nucleotides” (GE Healthcare Bio-Sciences Corp., priority 2003, dated 2006)",
  "test": "Non-enzymatic hydrolysis of dT4P-DDAO in the presence of MnCl2, effect of other salts (FIG. 5)",
  "conditions": "10 or 25 mM salt; 0.5 mM MnCl2; 25 mM Hepes pH 8.1; 95° C. for 60 minutes",
  "description": "Twenty μl of 25 mM Hepes, pH 8.1, containing 0.5 mM MnCl2, 1 μm dT4P-DDAO and 10 or 25 mM inorganic or organic salt (see FIG. 5) was heated at 95° C. for 60 minutes. 4 μl of each sample was treated with BAP as described above and read on Tecan ultra plate reader. An unheated sample with MnCl2 (water lane) and a heated sample without Hepes and MnCl2 were used as controls. Fluorescence counts were converted into % degradation as described above.",
  "data": [
    {"substance": "sodium vanadate", "values": [
      {"measurement": "stabilization of dT4P-DDAO (% degradation)", "value": "stabilize the nucleotide"}
    ]}
  ]
}
